Assay results taken from publication PMC6058575, “Enhanced anti-hepatocarcinoma efficacy by GLUT1 targeting and cellular microenvironment-responsive PAMAM–camptothecin conjugate” (Drug Delivery, 2017).

Key:
L02 cells = assay: MTT cytotoxicity; type: cell-based; details: 24 h
H22 tumor-bearing mice [1] = assay: In vivo and ex vivo imaging of tumor targeting; details: 1 mg/kg CPT i.v.
Description: An H22 tumor-bearing mice model was established based on previously reported method (Li et al., [2014]). Ascitic fluid containing H22 cells was extracted and diluted with PBS (pH 7.0) to 1 × 10^7 cells/ml. The mice (20–22 g) were anesthetized with 5% chloral hydrate and subcutaneously injected with 0.2 ml of cell suspension for armpit tumor implantation. All animal studies were approved by the China Animal Care and Use Committee and carried out according to the Guide for the Care and Use of Laboratory Animals of Beijing University of Chinese Medicine.
Mice were intravenously injected with conjugates at 1 mg/kg CPT concentration. […] Afterward, the tumor-bearing mice were immediately sacrificed by carbon dioxide asphyxiation. Subsequently, major organs (such as tumor, liver, spleen, brain, heart, kidney, and lung) were harvested and visualized.

[2] = Pharmacokinetic study after intravenous administration; type: in vivo; details: rats
Description: Twenty-four rats (200 ± 20 g) were randomly divided into four groups and were intravenously administered 1.5 mg/kg doses of CPT, PCC, MPCC, or GPCC. The rats were fasted for 12 h with free access to water before the experiment. Briefly, 0.5 ml of blood was collected in centrifuge tubes at predefined times of 0.083, 0.33, 0.5, 1, 2, 4, 8, 12, and 24 h. Blood samples were centrifuged at 15,000 rpm for 15 min at 4 °C to isolate plasma fractions. Then, 100 μL of methanol was added to the plasma, and the mixture was extracted with 2 mL hexane and 1 mL dichloromethane. The mixture was vortexed for 10 min and centrifuged at 15,000 rpm for 15 min, and the supernatant was collected and dried using a stream of nitrogen gas. The resultant residue was redissolved in 200 μL methanol and stored at −20 °C until further analysis.

HepG2 cells = details: 24 h, compared among conjugates
H22 tumor-bearing mice [3] = assay: Toxicity in the efficacy study (body weight, H&E staining); type: in vivo; details: 1 mg/kg CPT i.v., day 12
Description: The tumor-bearing mice were randomly divided into five groups (10 per group). The control group mice were administered saline. […] Body weights were recorded daily. At day 12, four mice of each group were sacrificed by carbon dioxide asphyxiation. Tumors, livers and spleens were collected and fixed with 10% paraformaldehyde for 48 h. These tissues were cut into […] sections and processed for H&E staining. The remaining […] in each group were also sacrificed, and the tumors were collected and weighed.

[4] = Particle size by dynamic light scattering (DLS); type: physicochemical; details: conjugates at 10 mg/ml
Description: The particle sizes and zeta potential of different conjugates at 10 mg/ml were determined using a dynamic light scattering (DLS) particle size analyzer (Nicomp 380 Zeta Potential/Particle Sizer, Santa Barbara, CA). Following staining with 2% sodium phosphotungstate solution, the conjugate morphologies were observed using transmission electron microscopy (TEM) at an accelerating voltage of 100 kV (JEM 1400 JOEL, Akishima City, Tokyo Prefecture, Japan).

[5] = 1.5 mg CPT/kg i.v., two-compartment model

Glucose–PEG–PAMAM-s-s–Camptothecin-Cy7 [GPCC]
cytotoxicity (L02 cells): lower than that of PCC
fluorescence intensity in tumor sites relative to MPCC conjugate (H22 tumor-bearing mice [1]; ex vivo imaging, 12 h): five-fold
fluorescence intensity in tumor sites relative to PCC conjugate (H22 tumor-bearing mice [1]; ex vivo imaging, 12 h): approximately 10 fold
time of maximum distribution at tumor sites (H22 tumor-bearing mice [1]; in vivo imaging): 4 h
AUC(0–t) [2, 5]: 7865 ± 1037 ng·h/mL
AUC(0–∞) [2, 5]: 8250 ± 662 ng·h/mL
CL [2, 5]: 3.05 ± 0.233 mL/min/kg
Cmax [2, 5]: 9132 ± 734 ng/mL
MRT(0–t) [2, 5]: 4.206 ± 0.442 h
MRT(0–∞) [2, 5]: 6.016 ± 2.83 h
V (apparent volume of distribution) [2, 5]: 1.881 ± 1.382 L/kg
t1/2 [2, 5]: 0.28 ± 0.027 h
area under the curve ([2]; 1.5 mg/kg CPT i.v.): 7.87 mg/L*h
area under the curve relative to CPT suspension ([2]; 1.5 mg/kg CPT i.v.): 10.52 fold
area under the curve relative to MPCC conjugate ([2]; 1.5 mg/kg CPT i.v.): 1.68 fold
area under the curve relative to PCC conjugate ([2]; 1.5 mg/kg CPT i.v.): 2.19 fold
mean residence time (MRT) increase compared with CPT suspension ([2]; 1.5 mg/kg CPT i.v.): approximately two-fold
t1/2 increase compared with CPT suspension ([2]; 1.5 mg/kg CPT i.v.): approximately 1.7 fold
maximum plasma drug concentration ([2]; 1.5 mg/kg CPT i.v., 5 min post administration): 9.13 µg/mL
cytotoxicity (inhibition of proliferation) (HepG2 cells): strongest inhibitory effect
H&E histology of liver and spleen (H22 tumor-bearing mice [3]): limited damage to the liver and spleen
particle size (DLS) [4]: 24.0 nm
